Measurements from patent publication US11186582B2, “Substituted [1,2,4]triazolo[1,5-a]pyrimidin-7-yl compounds as PDE2 inhibitors” (DART NEUROSCIENCE (CAYMAN) LTD., priority 2014, dated 2021).

Sequences of proteins named here, by UniProt entry; tags and fusion partners are left off. Residues count along the entry.
UniProt O00408, 2-941: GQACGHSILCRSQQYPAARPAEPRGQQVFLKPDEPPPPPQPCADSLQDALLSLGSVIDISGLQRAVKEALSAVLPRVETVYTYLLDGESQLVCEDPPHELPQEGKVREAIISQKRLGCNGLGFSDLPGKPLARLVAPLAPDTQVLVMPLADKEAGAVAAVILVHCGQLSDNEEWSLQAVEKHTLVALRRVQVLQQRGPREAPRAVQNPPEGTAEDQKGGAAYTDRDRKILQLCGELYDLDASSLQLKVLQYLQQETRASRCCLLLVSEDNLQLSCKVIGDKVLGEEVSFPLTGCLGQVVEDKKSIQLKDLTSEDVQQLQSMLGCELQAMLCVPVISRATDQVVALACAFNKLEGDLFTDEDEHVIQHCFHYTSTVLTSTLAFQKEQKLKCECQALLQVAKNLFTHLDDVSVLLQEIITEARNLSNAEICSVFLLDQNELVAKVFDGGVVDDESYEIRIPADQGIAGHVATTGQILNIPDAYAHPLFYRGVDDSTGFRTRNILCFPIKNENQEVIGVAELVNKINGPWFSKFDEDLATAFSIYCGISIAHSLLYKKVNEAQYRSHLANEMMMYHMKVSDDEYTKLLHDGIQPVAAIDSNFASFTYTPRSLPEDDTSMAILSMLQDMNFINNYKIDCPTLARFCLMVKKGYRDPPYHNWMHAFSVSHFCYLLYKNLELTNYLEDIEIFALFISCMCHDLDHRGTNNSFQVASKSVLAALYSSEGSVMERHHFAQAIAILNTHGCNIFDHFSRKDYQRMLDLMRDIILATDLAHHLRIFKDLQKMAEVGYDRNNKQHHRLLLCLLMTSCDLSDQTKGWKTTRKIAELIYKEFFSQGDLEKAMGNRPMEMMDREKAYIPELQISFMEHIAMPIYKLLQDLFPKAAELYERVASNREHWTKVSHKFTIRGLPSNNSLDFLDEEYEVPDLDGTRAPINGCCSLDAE

Target: FLAG-tagged PDE2A1 (amino acids 2-941) (Homo sapiens (Human), UniProt O00408)
Assay: IMAP TR-FRET PDE2A phosphodiesterase enzymatic assay
Conditions: not given

Q: `Cc1cc(C2CCCN(Cc3ccc(N4CCOCC4)cc3)C2)n2ncnc2n1` (stereo not shown) [Example 43, 4-{4-[(3-{5-Methyl-[1,2,4]triazolo[1,5-a]pyrimidin-7-yl}piperidin-1-yl)methyl]phenyl}morpholine] was tested. Which IC50 did it give?
A: > 10 µM

Q: With `Cc1cc(C2CCCN(Cc3ccc(F)c(C(F)(F)F)c3)C2)n2ncnc2n1` (stereo not shown) [Example 44, 1-{[4-Fluoro-3-(trifluoromethyl)phenyl]methyl}-3-{5-methyl-[1,2,4]triazolo[1,5-a]pyrimidin-7-yl}piperidine] as the compound, how does the IC50 read?
A: > 10 µM

Q: Which IC50 does the source give for `Cc1cc(C2CCCN(Cc3cccc(-c4ccco4)c3)C2)n2ncnc2n1` (stereo not shown) [Example 45, 1-{[3-(Furan-2-yl)phenyl]methyl}-3-{5-methyl-[1,2,4]triazolo[1,5-a]pyrimidin-7-yl}piperidine] here?
A: 0.1 to 1 µM

Q: `Cc1cc(C2CCCN(Cc3cn(C)c4ccccc34)C2)n2ncnc2n1` (stereo not shown) [Example 46, 1-Methyl-3-[(3-{5-methyl-[1,2,4]triazolo[1,5-a]pyrimidin-7-yl}piperidin-1-yl)methyl]-1H-indole] was tested. Which IC50 did it give?
A: > 10 µM

Q: How did the IC50 turn out when `Cc1cc(C2CCCN(Cc3ccc(N4CCCCC4)cc3)C2)n2ncnc2n1` (stereo not shown) [Example 47, 3-{5-Methyl-[1,2,4]triazolo[1,5-a]pyrimidin-7-yl}-1-{[4-(piperidin-1-yl)phenyl]methyl}piperidine] was run?
A: > 10 µM

Q: Which IC50 does the source give for `Cc1cc(C2CCCN(Cc3cccnc3)C2)n2ncnc2n1` (stereo not shown) [Example 48, 3-[(3-{5-Methyl-[1,2,4]triazolo[1,5-a]pyrimidin-7-yl}piperidin-1-yl)methyl]pyridine] here?
A: > 10 µM

Q: For `Cc1cc(C2CCCN(Cc3cccc(-c4ccccn4)c3)C2)n2ncnc2n1` (stereo not shown) [Example 49, 2-{3-[(3-{5-Methyl-[1,2,4]triazolo[1,5-a]pyrimidin-7-yl}piperidin-1-yl)methyl]phenyl}pyridine], which IC50 is on record?
A: 1 to 10 µM

Q: With `Cc1cc(C2CCCN(Cc3ccccc3N3CCOCC3)C2)n2ncnc2n1` (stereo not shown) [Example 50, 4-{2-[(3-{5-Methyl-[1,2,4]triazolo[1,5-a]pyrimidin-7-yl}piperidin-1-yl)methyl]phenyl}morpholine] as the compound, how does the IC50 read?
A: > 10 µM

Q: For `Cc1ccc(CN2CCCC(c3cc(C)nc4ncnn34)C2)c(C)n1` (stereo not shown) [Example 52, 2,6-Dimethyl-3-[(3-{5-methyl-[1,2,4]triazolo[1,5-a]pyrimidin-7-yl}piperidin-1-yl)methyl]pyridine], which IC50 is on record?
A: > 10 µM

Q: `Cc1cc(C2CCCN(Cc3ccccn3)C2)n2ncnc2n1` (stereo not shown) [Example 54, 2-[(3-{5-Methyl-[1,2,4]triazolo[1,5-a]pyrimidin-7-yl}piperidin-1-yl)methyl]pyridine] was tested. Which IC50 did it give?
A: > 10 µM

Q: With `Cc1cc(C2CCCN(Cc3ccc(Cl)cc3Cl)C2)n2ncnc2n1` (stereo not shown) [Example 55, 1-[(2,4-Dichlorophenyl)methyl]-3-{5-methyl-[1,2,4]triazolo[1,5-a]pyrimidin-7-yl}piperidine] as the compound, how does the IC50 read?
A: > 10 µM

Q: For `Cc1cc(C2CCCN(Cc3ccc(-n4cccc4)cc3)C2)n2ncnc2n1` (stereo not shown) [Example 56, 3-{5-Methyl-[1,2,4]triazolo[1,5-a]pyrimidin-7-yl}-1-{[4-(1H-pyrrol-1-yl)phenyl]methyl}piperidine], which IC50 is on record?
A: 0.1 to 1 µM

Q: For `Cc1cc(C2CCCN(Cc3cc4ccccc4s3)C2)n2ncnc2n1` (stereo not shown) [Example 57, 1-(1-Benzothiophen-2-ylmethyl)-3-{5-methyl-[1,2,4]triazolo[1,5-a]pyrimidin-7-yl}piperidine], which IC50 is on record?
A: 0.1 to 1 µM

Q: For `Cc1cc(C2CCCN(Cc3cnn(-c4ccccc4)c3)C2)n2ncnc2n1` (stereo not shown) [Example 58, 3-{5-Methyl-[1,2,4]triazolo[1,5-a]pyrimidin-7-yl}-1-[(1-phenyl-1H-pyrazol-4-yl)methyl]piperidine], which IC50 is on record?
A: > 10 µM

Q: With `Cc1cc(C2CCCN(Cc3ccc(N4CCCC4)cc3)C2)n2ncnc2n1` (stereo not shown) [Example 59, 3-{5-Methyl-[1,2,4]triazolo[1,5-a]pyrimidin-7-yl}-1-{[4-(pyrrolidin-1-yl)phenyl]methyl}piperidine] as the compound, how does the IC50 read?
A: > 10 µM

Q: `Cc1cc(C2CCCN(Cc3cc(Cl)ccc3Cl)C2)n2ncnc2n1` (stereo not shown) [Example 60, 1-[(2,5-Dichlorophenyl)methyl]-3-{5-methyl-[1,2,4]triazolo[1,5-a]pyrimidin-7-yl}piperidine] was tested. Which IC50 did it give?
A: 0.1 to 1 µM

Q: `Cc1cc(C2CCCN(Cc3ccccc3-n3cccn3)C2)n2ncnc2n1` (stereo not shown) [Example 61, 3-{5-Methyl-[1,2,4]triazolo[1,5-a]pyrimidin-7-yl}-1-{[2-(1H-pyrazol-1-yl)phenyl]methyl}piperidine] was tested. Which IC50 did it give?
A: > 10 µM

Q: For `COc1cc(Cl)ccc1CN1CCCC(c2cc(C)nc3ncnn23)C1` (stereo not shown) [Example 62, 1-[(4-Chloro-2-methoxyphenyl)methyl]-3-{5-methyl-[1,2,4]triazolo[1,5-a]pyrimidin-7-yl}piperidine], which IC50 is on record?
A: > 10 µM

Q: How did the IC50 turn out when `COc1cc(CN2CCCC(c3cc(C)nc4ncnn34)C2)ccc1C` (stereo not shown) [Example 63, 1-[(3-Methoxy-4-methylphenyl)methyl]-3-{5-methyl-[1,2,4]triazolo[1,5-a]pyrimidin-7-yl}piperidine] was run?
A: > 10 µM

Q: Which IC50 does the source give for `COc1ccc(CN2CCCC(c3cc(C)nc4ncnn34)C2)c(OC)c1` (stereo not shown) [Example 64, 1-[(2,4-Dimethoxyphenyl)methyl]-3-{5-methyl-[1,2,4]triazolo[1,5-a]pyrimidin-7-yl}piperidine] here?
A: > 10 µM

Q: `Cc1cc(C2CCCN(Cc3cccc4c3OCO4)C2)n2ncnc2n1` (stereo not shown) [Example 65, 1-(2H-1,3-Benzodioxol-4-ylmethyl)-3-{5-methyl-[1,2,4]triazolo[1,5-a]pyrimidin-7-yl}piperidine] was tested. Which IC50 did it give?
A: > 10 µM

Q: For `Cc1cc(C2CCCN(Cc3c(Cl)cccc3Cl)C2)n2ncnc2n1` (stereo not shown) [Example 66, 1-[(2,6-Dichlorophenyl)methyl]-3-{5-methyl-[1,2,4]triazolo[1,5-a]pyrimidin-7-yl}piperidine], which IC50 is on record?
A: 1 to 10 µM

Q: How did the IC50 turn out when `Cc1cc(C2CCCN(Cc3ccccc3-n3ccnc3)C2)n2ncnc2n1` (stereo not shown) [Example 67, 1-{[2-(1H-Imidazol-1-yl)phenyl]methyl}-3-{5-methyl-[1,2,4]triazolo[1,5-a]pyrimidin-7-yl}piperidine] was run?
A: > 10 µM

Q: With `Cc1cc(C2CCCN(Cc3ccc(Cl)cc3)C2)n2ncnc2n1` (stereo not shown) [Example 68, 1-[(4-Chlorophenyl)methyl]-3-{5-methyl-[1,2,4]triazolo[1,5-a]pyrimidin-7-yl}piperidine] as the compound, how does the IC50 read?
A: 0.1 to 1 µM

Q: With `Cc1cc(C2CCCN(Cc3ccc4ccccc4n3)C2)n2ncnc2n1` (stereo not shown) [Example 69, 2-[(3-{5-Methyl-[1,2,4]triazolo[1,5-a]pyrimidin-7-yl}piperidin-1-yl)methyl]quinoline] as the compound, how does the IC50 read?
A: 0.1 to 1 µM

Q: `COc1ccccc1CN1CCCC(c2cc(C)nc3ncnn23)C1` (stereo not shown) [Example 70, 1-[(2-Methoxyphenyl)methyl]-3-{5-methyl-[1,2,4]triazolo[1,5-a]pyrimidin-7-yl}piperidine] was tested. Which IC50 did it give?
A: > 10 µM

Q: `Cc1cc(C2CCCN(Cc3c(F)cc(Cl)cc3F)C2)n2ncnc2n1` (stereo not shown) [Example 71, 1-[(4-Chloro-2,6-difluorophenyl)methyl]-3-{5-methyl-[1,2,4]triazolo[1,5-a]pyrimidin-7-yl}piperidine] was tested. Which IC50 did it give?
A: > 10 µM

Q: Which IC50 does the source give for `COc1ccc(OC)c(CN2CCCC(c3cc(C)nc4ncnn34)C2)c1` (stereo not shown) [Example 72, 1-[(2,5-Dimethoxyphenyl)methyl]-3-{5-methyl-[1,2,4]triazolo[1,5-a]pyrimidin-7-yl}piperidine] here?
A: > 10 µM

Q: For `Cc1cc(C2CCCN(Cc3ccc4c(c3)OCCO4)C2)n2ncnc2n1` (stereo not shown) [Example 73, 1-(2,3-Dihydro-1,4-benzodioxin-6-ylmethyl)-3-{5-methyl-[1,2,4]triazolo[1,5-a]pyrimidin-7-yl}piperidine], which IC50 is on record?
A: > 10 µM

Q: Which IC50 does the source give for `Cc1cc(C2CCCN(Cc3c(C)cccc3Cl)C2)n2ncnc2n1` (stereo not shown) [Example 74, 1-[(2-Chloro-6-methylphenyl)methyl]-3-{5-methyl-[1,2,4]triazolo[1,5-a]pyrimidin-7-yl}piperidine] here?
A: > 10 µM

Q: For `Cc1cc(C2CCCN(Cc3ccccc3Cl)C2)n2ncnc2n1` (stereo not shown) [Example 75, 1-[(2-Chlorophenyl)methyl]-3-{5-methyl-[1,2,4]triazolo[1,5-a]pyrimidin-7-yl}piperidine], which IC50 is on record?
A: > 10 µM

Q: How did the IC50 turn out when `Cc1ccc(CN2CCCC(c3cc(C)nc4ncnn34)C2)cc1` (stereo not shown) [Example 76, 3-{5-Methyl-[1,2,4]triazolo[1,5-a]pyrimidin-7-yl}-1-[(4-methylphenyl)methyl]piperidine] was run?
A: 0.1 to 1 µM

Q: `Cc1cc(C2CCCN(Cc3cccc(-n4cccn4)c3)C2)n2ncnc2n1` (stereo not shown) [Example 77, 3-{5-Methyl-[1,2,4]triazolo[1,5-a]pyrimidin-7-yl}-1-{[3-(1H-pyrazol-1-yl)phenyl]methyl}piperidine] was tested. Which IC50 did it give?
A: 0.1 to 1 µM

Q: For `Cc1cc(C2CCCN(Cc3ccccc3)C2)n2ncnc2n1` (stereo not shown) [Example 78, 1-Benzyl-3-{5-methyl-[1,2,4]triazolo[1,5-a]pyrimidin-7-yl}piperidine], which IC50 is on record?
A: > 10 µM

Q: For `Cc1cc(C2CCCN(Cc3ccc(F)c(Cl)c3)C2)n2ncnc2n1` (stereo not shown) [Example 79, 1-[(3-Chloro-4-fluorophenyl)methyl]-3-{5-methyl-[1,2,4]triazolo[1,5-a]pyrimidin-7-yl}piperidine], which IC50 is on record?
A: 1 to 10 µM

Q: How did the IC50 turn out when `Cc1cc(C2CCCN(Cc3ccc(OC(C)C)cc3)C2)n2ncnc2n1` (stereo not shown) [Example 80, 3-{5-Methyl-[1,2,4]triazolo[1,5-a]pyrimidin-7-yl}-1-{[4-(propan-2-yloxy)phenyl]methyl}piperidine] was run?
A: > 10 µM

Q: With `COc1cccc(CN2CCCC(c3cc(C)nc4ncnn34)C2)c1F` (stereo not shown) [Example 81, 1-[(2-Fluoro-3-methoxyphenyl)methyl]-3-{5-methyl-[1,2,4]triazolo[1,5-a]pyrimidin-7-yl}piperidine] as the compound, how does the IC50 read?
A: > 10 µM

Q: How did the IC50 turn out when `Cc1cc(C2CCCN(Cc3ccc(F)cc3)C2)n2ncnc2n1` (stereo not shown) [Example 82, 1-[(4-Fluorophenyl)methyl]-3-{5-methyl-[1,2,4]triazolo[1,5-a]pyrimidin-7-yl}piperidine] was run?
A: > 10 µM

Q: `Cc1cc(C2CCCN(Cc3ccc(C(C)C)cc3)C2)n2ncnc2n1` (stereo not shown) [Example 84, 3-{5-Methyl-[1,2,4]triazolo[1,5-a]pyrimidin-7-yl}-1-{[4-(propan-2-yl)phenyl]methyl}piperidine] was tested. Which IC50 did it give?
A: > 10 µM

Same assay, conditions: IMAP TR-FRET, 200 nM FAM-cAMP substrate, 11-point half-log dose-response

Q: How did the “PDE2 (pIC50)” value turn out when `Cc1cc(C2CCCN(Cc3ccc(Cl)c(F)c3)C2)n2ncnc2n1` (stereo not shown) [Example 83, 1-[(4-Chloro-3-fluorophenyl)methyl]-3-{5-methyl-[1,2,4]triazolo[1,5-a]pyrimidin-7-yl}piperidine] was run?
A: >7
